Experiments:
human orexin-2 receptor = human orexin-2 receptor (Homo sapiens, UniProt O43614); experiment: Intracellular calcium measurements (FLIPR), orexin receptor antagonistic activity, OX2; settings: read-out: OX2 IC50, CHO cells expressing human orexin-2 receptor, 10 nM orexin-A as agonist
human orexin-1 receptor = human orexin-1 receptor (Homo sapiens, UniProt O43613); experiment: Intracellular calcium measurements (FLIPR), orexin receptor antagonistic activity, OX1; settings: read-out: OX1 IC50, CHO cells expressing human orexin-1 receptor, 10 nM orexin-A as agonist

By UniProt entry, the sequences of proteins in these tests, tags left out.
UniProt O43614, whole entry: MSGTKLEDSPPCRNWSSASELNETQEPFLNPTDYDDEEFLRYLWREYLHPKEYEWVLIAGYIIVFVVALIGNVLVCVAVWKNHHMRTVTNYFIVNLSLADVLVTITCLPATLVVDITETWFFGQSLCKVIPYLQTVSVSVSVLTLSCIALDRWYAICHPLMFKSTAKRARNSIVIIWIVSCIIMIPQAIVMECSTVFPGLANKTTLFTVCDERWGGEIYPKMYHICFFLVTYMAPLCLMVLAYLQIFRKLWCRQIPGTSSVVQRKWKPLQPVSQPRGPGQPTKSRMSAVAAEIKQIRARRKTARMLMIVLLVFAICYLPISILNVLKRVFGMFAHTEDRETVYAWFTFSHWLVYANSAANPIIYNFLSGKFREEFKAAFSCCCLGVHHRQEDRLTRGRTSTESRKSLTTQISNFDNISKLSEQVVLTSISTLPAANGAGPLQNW
UniProt O43613, whole entry: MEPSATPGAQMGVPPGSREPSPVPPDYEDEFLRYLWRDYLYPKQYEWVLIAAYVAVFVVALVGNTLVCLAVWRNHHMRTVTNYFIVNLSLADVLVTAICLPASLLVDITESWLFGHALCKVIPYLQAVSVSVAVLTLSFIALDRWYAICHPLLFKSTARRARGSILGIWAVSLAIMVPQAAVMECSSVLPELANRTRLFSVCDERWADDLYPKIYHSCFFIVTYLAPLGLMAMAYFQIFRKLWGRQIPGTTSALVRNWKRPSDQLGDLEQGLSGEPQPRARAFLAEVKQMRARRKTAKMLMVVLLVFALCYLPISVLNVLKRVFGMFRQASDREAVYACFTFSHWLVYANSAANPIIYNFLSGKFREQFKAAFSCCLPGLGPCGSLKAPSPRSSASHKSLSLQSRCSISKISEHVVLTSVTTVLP

Cc1nc(C(=O)N2C[C@H]3C[C@H]3[C@H]2CNC(=O)c2cccc3occc23)c(-c2cccc(F)c2)s1
IC50 (human orexin-2 receptor): 12 nM
IC50 (human orexin-1 receptor): 22 nM

— patent US20100016401A1, “3-AZA-BICYCLO[3.1.0]HEXANE DERIVATIVES” (Actelion Phamaceuticals Ltd., priority 2006, published 2010)
